Data as given in US4737493A, “7-((substitu ted)amino)-8-((substituted)carbonyl)-methylamino)-1-oxaspiro(4,5)decanes as analgesic agents” (dated 1988).

Chains of the proteins cited; added tags and fusions are not shown. Lines headed by an entry give the natural chain unless they say otherwise; changes in a name come on top. Residues count along the entry.
UniProt P41144: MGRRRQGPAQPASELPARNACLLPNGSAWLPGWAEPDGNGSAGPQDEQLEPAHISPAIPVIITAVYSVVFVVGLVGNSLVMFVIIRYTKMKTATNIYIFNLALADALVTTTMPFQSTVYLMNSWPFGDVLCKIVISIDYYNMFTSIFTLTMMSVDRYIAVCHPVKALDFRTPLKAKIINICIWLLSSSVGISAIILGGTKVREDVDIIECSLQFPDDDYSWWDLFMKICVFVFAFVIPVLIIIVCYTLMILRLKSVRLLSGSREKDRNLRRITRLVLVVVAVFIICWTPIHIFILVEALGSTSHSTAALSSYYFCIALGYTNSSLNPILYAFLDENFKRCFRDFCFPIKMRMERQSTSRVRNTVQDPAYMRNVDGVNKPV
UniProt A0ACM8Q262, 1-400: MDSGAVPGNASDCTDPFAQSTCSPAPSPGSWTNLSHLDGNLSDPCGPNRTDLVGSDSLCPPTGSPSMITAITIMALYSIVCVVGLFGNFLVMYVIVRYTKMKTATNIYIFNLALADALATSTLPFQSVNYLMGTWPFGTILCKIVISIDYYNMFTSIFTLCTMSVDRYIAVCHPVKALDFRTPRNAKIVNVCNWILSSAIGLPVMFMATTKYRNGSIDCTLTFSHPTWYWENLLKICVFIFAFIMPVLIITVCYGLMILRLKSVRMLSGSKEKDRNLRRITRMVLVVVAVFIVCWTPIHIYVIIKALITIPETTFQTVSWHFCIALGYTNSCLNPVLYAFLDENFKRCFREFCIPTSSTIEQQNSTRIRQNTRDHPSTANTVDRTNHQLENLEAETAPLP

Experiments:
rat = rat paw pressure test (analgesia)
kappa opioid receptor [1] = target: kappa opioid receptor (Cavia porcellus, UniProt P41144); assay: kappa opioid receptor binding: inhibition of tritiated etorphine binding to guinea pig brain homogenates with DADLE and DAGO added to saturate delta and mu receptors; conditions: for Ratio of kappa/mu binding: from Ki kappa and Ki mu; for Ki: read-out: Receptor Binding (Ki moles/liter) Kappa, tritiated etorphine, guinea pig brain homogenates, 200 nanomolar DADLE and 200 nanomolar DAGO
mu opioid receptor = mu opioid receptor (Cavia porcellus, UniProt A0ACM8Q262); assay: mu opioid receptor binding: tritiated DAGO, guinea pig brain homogenates; conditions: read-out: Receptor Binding (Ki moles/liter) Mu, 150 minutes at 0° C.
kappa opioid receptor [2] = conditions: P. V. Vanvoigtlander et al., J. Pharmacol. Exp. Ther., 224: 7-12 (1983); cited from earlier work

Compound	Rat Paw Pressure (MPE50 I.V.) (rat) [Mg/kg]	Ratio of kappa/mu binding (kappa opioid receptor [1])	Ki (kappa opioid receptor [1]) [nM]	Ki (mu opioid receptor) [nM]	kappa opioid receptor agonist activity (in words) (kappa opioid receptor [2])
CN(C(=O)Cc1cccc2sccc12)[C@@H]1CCC2(CCCO2)C[C@H]1N1CCCC1 (stereo partly drawn)	0.02	163	2.97	484	
CN(C(=O)Cc1ccc(Cl)c(Cl)c1)[C@@H]1CCCC[C@H]1N1CCCC1 (relative stereo)					selective kappa opioid receptor agonist activity
CN(C(=O)Cc1cc2ccccc2s1)C1CCC2(CCCO2)CC1N1CCCC1 (stereo not drawn)	0.03	49	1.75	86.2	
